Test results reported in ChEMBL document CHEMBL2424579, “Quinazolin-4-one derivatives as selective histone deacetylase-6 inhibitors for the treatment of Alzheimer's disease” (J Med Chem, 2013).

Columns and labels:
Homo sapiens = species: Homo sapiens; assay: Selectivity index, ratio of IC50 for human recombinant HDAC11 to IC50 for human recombinant HDAC6
PC-12 = assay: Inhibition of HDAC6 in rat PC12 cells assessed as induction of alpha-tubulin acetylation after 48 hrs by Western blotting analysis relative to control; format: cell-based

| SMILES | Ratio IC50 (Homo sapiens) | fold change (FC) (PC-12) |
| --- | --- | --- |
| CCc1nc2cc(F)c(/C=C/C(=O)NO)cc2c(=O)n1CCc1ccccc1 | 585 | 3 |
| CCc1nc2cc(/C=C/C(=O)NO)ccc2c(=O)n1CCc1ccccc1 | 268 | – |
